Assay results reported in US20200181284A1, “EPIGENETIC INHIBITORS FOR SENSITIZING HEMATOLOGIC OR OTHER MALIGNANCIES TO GLUCOCORTICOID THERAPY” (UNIVERSITY OF SOUTHERN CALIFORNIA, priority 2017, published 2020).

Molecular target: T1, hG9a (Homo sapiens, UniProt Q96KQ7)
T1 construct: transfected with a plasmid encoding full length HA-hG9a and treated with 2 μM UNC0646; expressed in transfected cells; host or cells: Cos-7
T1 sequence (Q96KQ7 1-1210): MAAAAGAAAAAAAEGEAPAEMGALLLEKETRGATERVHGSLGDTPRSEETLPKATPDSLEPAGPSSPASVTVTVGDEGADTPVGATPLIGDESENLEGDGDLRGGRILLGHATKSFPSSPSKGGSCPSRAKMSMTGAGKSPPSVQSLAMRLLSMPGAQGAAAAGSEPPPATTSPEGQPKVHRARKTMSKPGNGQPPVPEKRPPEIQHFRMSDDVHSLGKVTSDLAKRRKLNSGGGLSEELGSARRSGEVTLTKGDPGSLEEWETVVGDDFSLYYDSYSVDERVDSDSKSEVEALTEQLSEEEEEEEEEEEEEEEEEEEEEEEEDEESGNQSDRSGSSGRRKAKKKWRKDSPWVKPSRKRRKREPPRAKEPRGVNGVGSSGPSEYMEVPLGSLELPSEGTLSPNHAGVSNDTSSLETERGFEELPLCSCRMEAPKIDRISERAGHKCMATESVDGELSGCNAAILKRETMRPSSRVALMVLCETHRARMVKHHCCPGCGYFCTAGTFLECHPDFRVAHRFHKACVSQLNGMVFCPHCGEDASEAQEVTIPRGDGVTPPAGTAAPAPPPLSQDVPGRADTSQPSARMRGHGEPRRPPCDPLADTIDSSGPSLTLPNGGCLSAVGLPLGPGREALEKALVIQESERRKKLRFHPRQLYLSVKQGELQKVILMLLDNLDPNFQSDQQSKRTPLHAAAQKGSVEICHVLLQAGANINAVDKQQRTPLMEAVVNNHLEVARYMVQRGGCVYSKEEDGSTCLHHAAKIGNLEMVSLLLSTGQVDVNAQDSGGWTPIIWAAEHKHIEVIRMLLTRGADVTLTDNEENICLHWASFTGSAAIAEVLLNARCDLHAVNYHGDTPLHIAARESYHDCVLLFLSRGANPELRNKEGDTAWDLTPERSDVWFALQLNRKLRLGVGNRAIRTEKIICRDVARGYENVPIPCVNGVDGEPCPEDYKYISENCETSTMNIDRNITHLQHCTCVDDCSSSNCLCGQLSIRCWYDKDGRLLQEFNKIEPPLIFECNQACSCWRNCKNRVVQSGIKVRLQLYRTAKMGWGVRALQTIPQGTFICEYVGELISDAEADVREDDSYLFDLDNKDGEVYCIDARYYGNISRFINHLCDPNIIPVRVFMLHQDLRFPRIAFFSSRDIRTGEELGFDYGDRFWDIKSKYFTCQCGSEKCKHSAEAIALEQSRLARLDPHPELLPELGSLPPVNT
Test: Methylation of HA-hG9a in Cos-7 cells (pan met-K immunoprecipitation/immunoblot)
Type: cell-based, African green monkey
Settings: 2 μM inhibitor, 24 h
Protocol: Cos-7 or A549 cells were seeded on 10-cm dishes the day before transfection. Cells were transiently transfected (where indicated) using Lipofectamine 2000 (Invitrogen) with 5 μg each of the indicated plasmids according to the manufacturer's protocol. […] Protein extracts were incubated with 1 μg of the indicated primary antibodies overnight at 4° C. with shaking. Protein A/G Plus Agarose (Santa Cruz sc-2003) beads were added and the mixture was incubated 2 hr at 4° C. The immunoprecipitates were separated on SDS-PAGE. […] In immunoprecipitation experiments 3% of the input of each sample was analyzed by immunoblot using the antibodies listed. […] For FIGS. 17B-1 and 17B-2, after protein methylation reactions in vitro methylated proteins were detected by immunoblot with pan methyllysine antibody (pan met-K). […]

## COc1cc2c(NC3CCN(C(C)C)CC3)nc(C3CCCCC3)nc2cc1OCCCN1CCCC1 [UNC0638]
  pan-methyllysine antibody signal on wild type hG9a: strongly decreased
